The values below are quoted from earlier work in patent publication US20260317706A1, “COMPOSITION FOR INDUCING STEM CELLS TO DIFFERENTIATE INTO ASTROCYTES, CONTAINING CPI-455” (CHUNG ANG UNIVERSITY INDUSTRY ACADEMIC COOPERATION …, priority 2023, published 2026).

The data set concerns STAT3. Particulars: human oral carcinoma cells; cited from earlier work.

B1: recombinant BMP2: one of the TGF-beta family cytokines, a polypeptide dimer composed of 114 amino acids (protein, UniProt P12643 283-396, looked up)
Bone morphogenetic protein 2: QAKHKQRKRLKSSCKRHPLYVDFSDVGWNDWIVAPPGYHAFYCHGECPFPLADHLNSTNHAIVQTLVNSVNSKIPKACCVPTELSAISMLYLDENEKVVLKNYQDMVVEGCGCR
With B1, the STAT3 phosphorylation entry is listed as “increased”.
